Measured values published in PMC5888952 (Toxicological Sciences, 2018).

System: cryopreserved primary human hepatocytes (PHH) in 2Dsw culture
Assay: Repeated-dose cytotoxicity
Conditions: any of the 3 PHH donors, up to 14 days repeated exposure

O=C(O)Cc1ccccc1Nc1c(Cl)cccc1Cl [diclofenac]
EC50 (50% reduction in viability, ATP): could not be attained
